Results on one sequence are retold here after ChEMBL document CHEMBL2429777, “Synthesis and antibacterial activity evaluation of 2,6-bis(6-substituted-1,2,4-triazolo[3,4-b][1,3,4]thiadiazol-3-yl)pyridine derivatives” (2013).

The experiment deals with Escherichia coli.

Usually MIC stands for the lowest concentration that inhibits growth of the organism. A high value points to a less susceptible organism. In the case of GENTAMICIN, it took 0.5 µg/mL to inhibit growth (MIC).
